This data set is described as follows: in vivo paclitaxel release from stent (explanted stents, total drug load by HPLC). The following applies: normalized for 3 mm×16 mm stent.

In the case of `CC(=O)O[C@H]1C(=O)[C@@]2(C)[C@H]([C@H](OC(=O)c3ccccc3)[C@]3(O)C[C@H](OC(=O)[C@H](O)[C@@H](NC(=O)c4ccccc4)c4ccccc4)C(C)=C1C3(C)C)[C@]1(OC(C)=O)CO[C@@H]1C[C@@H]2O` [paclitaxel], the “initial release in the first day (amount)” value is listed as “about 1.5 μg”.
